Assay results as given in patent US20120114636A1, “LOW MOLECULAR WEIGHT CYCLIN E (LMW-E) AS A BIOMARKER FOR PERSONALIZATION OF CANCER THERAPIES” (The Board of Regents of the University of Texas System, priority 2009, published 2012).

How the values were obtained:
[1] = system: MCF-7-HER-18 and SKBr3 cells; experiment: Western blot and confocal microscopy of G1 regulators after trastuzumab; type: cell-based, human
SKBr3 cells [2] = experiment: Confocal immunofluorescence of cyclin E expression after trastuzumab; type: cell-based, human; conditions: 20 μg/mL trastuzumab, 48 hours
Procedure: (§1) This was subsequently diluted in DMEM supplemented with 10% FBS, 2 mM L-glutamine, 100 U/mL penicillin, and 100 μg/mg streptomycin to concentrations of 10 μg/mL and 20 μg/mL. Twenty-four hours after 1×10^6 cells were plated on 100 mL plates, media were changed to low-serum media, DMEM with 0.5% FBS for MCF7, SKBr3, or BT474 cells and, for MCF-7-1 {ER-18 cells, DMEM with 0.5% FBS and 0.5 μg/mL G418.
(§2) Primary antibodies included the monoclonal HER2/neu antibody (Cell Signaling, Danvers, Mass.) and polyclonal cyclin E, p21, and p27 antibodies (Santa Cruz Biotechnology Inc, Santa Cruz, Calif.), all at a 1:200 dilution. The following day, cells were incubated for 1 hour with a secondary antibody: fluorescein isothiocyanate-conjugated goat anti-mouse IgG was used for cells that had been treated with monoclonal antibodies, and rhodamine-conjugated goat anti-mouse IgG was used for cells treated with polyclonal antibodies. […] The multi-line argon laser was used to simultaneously stimulate green and red fluorescence, after which final images were obtained by merging the images from the green and red channels.
(§3) TO-PRO-3-iodide (blue) was used as a nuclear stain. Cyclin E expression was quantified using Image-Pro Plus Software. […] For each cell line, bands corresponding to Histone H1 phosphorylation were quantitated through phosphoimaging. […]

MCF-7-HER-18 cells = experiment: as above; type: cell-based, human; conditions: 20 μg/mL trastuzumab, 48 hours
Procedure: as §1, §2, §3

[3] = system: cyclin E-associated kinase activity in SKBr3 cells; experiment: Cyclin E-associated kinase assay (histone H1) on lysates of treated cells; type: cell-based, human; conditions: trastuzumab treatment vs untreated control
Procedure: siRNA Transfections MCF-7, MCF-7-HER-18, SKBr3, and BT474 cells were transiently transfected with the predesigned siRNA to the HER2/neu gene. Briefly, 5×10^4-1×10^5 cells/well were plated in 6-well plates 24 hours before transfection. Five-hundred microliters of opti-MEM medium (Gibco; Invitrogen, Carlsbad, Calif.) and 12.5 μL of 50 μM HER2 siRNA were mixed for 10 minutes at room temperature. Simultaneously, 500 μL of opti-MEM medium and 7.5 μL of X-treme GENE siRNA transfection reagent (Roche Applied Science, Base1, Germany) were mixed for 10 minutes at room temperature. The two mixtures were then combined for an additional 20 minutes. […] Seventy-two hours after transfection, cells were harvested for analysis by flow cytometry, western blot, kinase assay, and real-time quantitative polymerase chain reaction (qRT-PCR). […]
Western Blot Analysis and Immunoprecipitation Kinase Assays Cell lysates were prepared and subjected to western blot analysis as previously described (Rao et al., 1998). […] Membranes were developed and protein signals detected by using chemiluminescence western blotting detection reagents (Amersham Biosciences, Buckinghamshire, England). […] For quantitation of relative kinase activity, the bands corresponding to histone H1 were analyzed on a phosphoimager Typhoon 9400 machine (Amersham Biosciences, Sunnyvale, Calif.). […]

[4] = system: HER2-overexpressing tumors; conditions: Cobleigh et al., 1999; Vogel et al., 2002; cited from earlier work
[5] = system: MCF-7-HER-18 breast cancer xenograft; experiment: HER2-overexpressing breast cancer xenograft, immunohistochemistry of tumors; type: in vivo, nude mice; conditions: trastuzumab intraperitoneal twice weekly for 3 weeks vs PBS
SKBr3 cells [6] = experiment: High throughput clonogenic assay, trastuzumab and roscovitine; type: cell-based, human; conditions: agents alone or in combination
Procedure: (§4) FIGS. 27A-27B. […] FIG. 27B. […] Isobologram analysis and graphs were obtained using CalcuSyn software, which performs drug dose—effect calculation using the median effect method. Experiments were performed in triplicate and representative data are shown.

BT474 cells = experiment: as above; type: cell-based, human; conditions: agents alone or in combination
Procedure: as §4

[7] = western blot, trastuzumab vs untreated control cells

## trastuzumab
[1]; confocal microscopy, 10 or 20 μg/mL trastuzumab, 48 hours
  nuclear localization of CDK inhibitors p21 and p27: increased nuclear localization
[1]; [7]
  expression of cyclin D1: decreased
  p21 or p27 expression: No appreciable change
SKBr3 cells [2]
  decrease in cyclin E expression compared to levels in untreated cells: 86.8%
MCF-7-HER-18 cells
  decrease in cyclin E expression compared to levels in untreated cells: 86.5%
[3]
  decrease in cyclin E-associated kinase activity: 60%
[4]
  patients in whom effective as a single agent: 35%
[5]
  cyclin E expression in tumors: concomitant decrease in cyclin E expression
SKBr3 cells [6]
  cell viability: dose-dependent reduction in cell viability
BT474 cells
  cell viability: dose-dependent reduction in cell viability
